# Yeast mating assay 2: variants of the scFv Ab-91

Target peptide (SARS-CoV-2 spike, HR2 region): PDVDLGDISGINAS

Each scFv is VL, a (GGGGS)3 linker, VH, as in the parent Ab-91, and differs from it in the CDRs of the heavy chain only.
VL: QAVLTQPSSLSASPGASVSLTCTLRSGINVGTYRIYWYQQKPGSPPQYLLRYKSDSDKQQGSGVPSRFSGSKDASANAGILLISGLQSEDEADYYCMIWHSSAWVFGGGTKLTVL
VH: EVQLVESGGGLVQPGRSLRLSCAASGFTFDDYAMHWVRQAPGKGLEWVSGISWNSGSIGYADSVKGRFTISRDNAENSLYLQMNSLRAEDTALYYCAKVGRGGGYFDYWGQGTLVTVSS

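The starting antibody came from a phage panning campaign against this peptide. Library AAYL51 holds single substitutions and randomly drawn double and triple substitutions in the CDRs. In AlphaSeq, yeast of one mating type display the scFv and yeast of the other type display the target. Pairs that bind mate more often; barcode pairs of the diploids are counted by sequencing. The ratio of observed to expected reads was calibrated, replicate by replicate, on BCL2-family standards whose Kd was known from biolayer interferometry. Mating was done three times.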

Substitutions are numbered in sequence along the VH above, starting at 1 (not Kabat). Every variant below is changed at I51 of the VH (sequential numbering). The read-out is the apparent dissociation constant on a log10 scale (nM): the lower, the stronger. Replicates are averaged; those with no signal do not enter the mean. A pair that was not seen in any replicate is written "no signal"; this usually means weak binding, but a binder can also be missed. Empty control strains, which show no peptide, gave a signal in 21% of pairings with library AAYL51; the median was 4.54 and 95% of these signals were weaker than 3.26. No background was subtracted. For each scFv, signals with the empty controls are counted beside the result.

With Y32V/H35I/I51G the result was 5.88 (1 of 3 replicates; controls 3 of 9). The variant I51T/S57C/G102C gave no signal (0 of 3 replicates; controls 1 of 9). For I51K/Y105E, the assay gave no signal (0 of 3 replicates; controls 0 of 9). For I51R/S55P/K65C, the assay gave no signal (0 of 3 replicates; controls 3 of 9). With G50L/I51T/R101W the result was 4.27 (2 of 3 replicates; controls 2 of 9). For F27L/I51V/F106C, the assay gave no signal (0 of 3 replicates; controls 1 of 9). With I51N/G102T/Y105Q the result was no signal (0 of 3 replicates; controls 0 of 9). The variant M34K/I51F/S55W showed no signal (0 of 3 replicates; controls 0 of 9).

For D31R/I51H/F106K, the assay gave 3.26 (1 of 3 replicates; controls 1 of 9). With I51Q/K65F/V99E the result was 3.69 (1 of 3 replicates; controls 1 of 9). For Y32H/I51Q/G100C, the assay gave 5.02 (3 of 3 replicates; controls 3 of 9). For H35V/I51Q/S52C, the assay gave no signal (0 of 3 replicates; controls 0 of 9). The variant G26A/I51T/S57K showed 3.92 (1 of 3 replicates; controls 1 of 9). For I51T/Y105P/Y108A, the assay gave 3.20 (1 of 3 replicates; controls 1 of 9). The variant H35C/I51G showed no signal (0 of 3 replicates; controls 0 of 9). The variant I51T/G56T/G59Y gave no signal (0 of 3 replicates; controls 1 of 9).

The variant D30A/I51T/Y108S showed no signal (0 of 3 replicates; controls 0 of 9). For G26Q/I51C/S52W, the assay gave no signal (0 of 3 replicates; controls 2 of 9). With I51N/S57L the result was 4.69 (2 of 3 replicates; controls 4 of 9). With H35P/I51S/W53M the result was no signal (0 of 3 replicates; controls 2 of 9). The variant F27Y/I51N/V64C showed 4.29 (1 of 3 replicates; controls 1 of 9). The variant I51A/D62N/G102A showed no signal (0 of 3 replicates; controls 1 of 9). The variant M34I/I51N/Y60A showed 5.14 (2 of 3 replicates; controls 3 of 9). The variant I51Y/D107C showed no signal (0 of 3 replicates; controls 2 of 9).

The variant I51Q/D62F/K65T showed no signal (0 of 3 replicates; controls 0 of 9). With I51Y/A61N/K65Q the result was no signal (0 of 3 replicates; controls 5 of 9). For I51N/I58E, the assay gave no signal (0 of 3 replicates; controls 2 of 9). The variant I51Y/I58L/G104H gave no signal (0 of 3 replicates; controls 2 of 9). The variant F29C/I51Y/A61N gave 5.07 (1 of 3 replicates; controls 3 of 9). For I51A/G104T, the assay gave 4.04 (1 of 3 replicates; controls 0 of 9). The variant F27Y/M34Q/I51D showed no signal (0 of 3 replicates; controls 0 of 9). For D31V/M34P/I51D, the assay gave 3.58 (1 of 3 replicates; controls 0 of 9).

For M34V/I51C/D107H, the assay gave 5.37 (2 of 3 replicates; controls 4 of 9). With I51S/G100L/G103N the result was no signal (0 of 3 replicates; controls 0 of 9). For I51Q/S55H/A61V, the assay gave 3.60 (2 of 3 replicates; controls 0 of 9). With D30G/I51P/R101P the result was 4.72 (2 of 3 replicates; controls 4 of 9). The variant I51W/K65Q/G103P showed 4.88 (1 of 3 replicates; controls 1 of 9). With I51S/G100Q the result was no signal (0 of 3 replicates; controls 0 of 9). With I51F/G56K/G104E the result was no signal (0 of 3 replicates; controls 2 of 9). For I51N/W53Y/V64A, the assay gave 5.16 (1 of 3 replicates; controls 2 of 9).

The variant I51K/G102N/G103D showed 5.13 (2 of 3 replicates; controls 2 of 9). The variant G26P/I51A showed no signal (0 of 3 replicates; controls 3 of 9). For A33M/I51P/G59T, the assay gave no signal (0 of 3 replicates; controls 0 of 9). For I51H/D62V/G100C, the assay gave 5.30 (3 of 3 replicates; controls 3 of 9). With T28K/I51F/F106S the result was no signal (0 of 3 replicates; controls 0 of 9). The variant G26V/I51W/R101Q gave 3.45 (1 of 3 replicates; controls 1 of 9). For T28R/I51W/S55V, the assay gave 5.61 (3 of 3 replicates; controls 5 of 9). For G26L/I51Q/W53K, the assay gave no signal (0 of 3 replicates; controls 1 of 9).

For T28D/I51E/D107H, the assay gave no signal (0 of 3 replicates; controls 1 of 9).

For reference, 7 entries of the list once more:

{"changes": "G26L/I51Q/W53K", "log10 Kd (nM), mean": "no signal", "detected": "0/3", "empty controls": "1/9"}
{"changes": "I51A/D62N/G102A", "log10 Kd (nM), mean": "no signal", "detected": "0/3", "empty controls": "1/9"}
{"changes": "I51N/S57L", "log10 Kd (nM), mean": "4.69", "detected": "2/3", "empty controls": "4/9"}
{"changes": "I51Q/D62F/K65T", "log10 Kd (nM), mean": "no signal", "detected": "0/3", "empty controls": "0/9"}
{"changes": "I51W/K65Q/G103P", "log10 Kd (nM), mean": "4.88", "detected": "1/3", "empty controls": "1/9"}
{"changes": "I51T/Y105P/Y108A", "log10 Kd (nM), mean": "3.20", "detected": "1/3", "empty controls": "1/9"}
{"changes": "G26A/I51T/S57K", "log10 Kd (nM), mean": "3.92", "detected": "1/3", "empty controls": "1/9"}

Reference: Engelhart et al. 2022, doi:10.1038/s41597-022-01779-4. File: FLAb, binding data.